From ChEMBL document CHEMBL1129825, “trans N-Methyl-N-[2-(1-pyrrolidinyl)cyclohexyl] cycloprop-2-ene-1-carboxamides: Novel lipophilic kappa opioid agonists” (1997) come the findings set out here.

The chains behind the UniProt entries cited, without tags or fusion partners. Where a name states a change or a piece, a line headed by the entry shows the natural chain unless it says otherwise.
UniProt P41145: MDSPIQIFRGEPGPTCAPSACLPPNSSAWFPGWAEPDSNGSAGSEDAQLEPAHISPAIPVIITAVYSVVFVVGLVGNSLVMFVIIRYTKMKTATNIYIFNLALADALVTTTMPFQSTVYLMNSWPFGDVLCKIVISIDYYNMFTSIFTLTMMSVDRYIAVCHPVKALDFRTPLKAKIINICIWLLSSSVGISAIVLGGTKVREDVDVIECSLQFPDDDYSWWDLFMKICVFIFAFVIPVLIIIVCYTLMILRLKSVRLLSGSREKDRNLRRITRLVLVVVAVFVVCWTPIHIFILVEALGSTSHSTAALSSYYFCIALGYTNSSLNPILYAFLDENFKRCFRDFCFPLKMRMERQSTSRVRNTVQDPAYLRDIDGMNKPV
UniProt P33535, whole entry, looked up: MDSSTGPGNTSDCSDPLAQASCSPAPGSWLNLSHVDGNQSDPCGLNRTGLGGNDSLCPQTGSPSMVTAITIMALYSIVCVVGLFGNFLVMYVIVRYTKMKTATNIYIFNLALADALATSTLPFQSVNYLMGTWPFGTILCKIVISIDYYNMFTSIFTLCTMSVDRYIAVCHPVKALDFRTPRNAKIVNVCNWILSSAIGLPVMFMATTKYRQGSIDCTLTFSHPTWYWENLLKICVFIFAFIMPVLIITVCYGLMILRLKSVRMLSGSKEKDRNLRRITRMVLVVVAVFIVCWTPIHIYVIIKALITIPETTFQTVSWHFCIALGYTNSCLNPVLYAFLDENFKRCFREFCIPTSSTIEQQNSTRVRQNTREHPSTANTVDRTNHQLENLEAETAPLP
UniProt P34975: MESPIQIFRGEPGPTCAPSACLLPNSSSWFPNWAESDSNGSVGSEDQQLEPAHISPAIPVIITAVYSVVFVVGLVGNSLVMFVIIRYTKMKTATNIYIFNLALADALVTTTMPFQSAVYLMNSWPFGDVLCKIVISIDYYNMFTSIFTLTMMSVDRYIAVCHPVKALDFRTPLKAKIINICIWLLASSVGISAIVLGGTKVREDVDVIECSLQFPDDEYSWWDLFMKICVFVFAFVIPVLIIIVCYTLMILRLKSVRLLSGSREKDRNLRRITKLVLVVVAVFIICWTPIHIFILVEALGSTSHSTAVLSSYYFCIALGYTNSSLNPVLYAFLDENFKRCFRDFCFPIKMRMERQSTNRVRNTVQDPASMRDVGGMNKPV

SMILES strings stand for the structures. Where “and” joins values, the source holds several entries; their conditions need not be identical. Equal values may be shown once. Some results are limits rather than exact numbers.

In data set [1] the target is Kappa-type opioid receptor (Homo sapiens, UniProt P41145). Nature of the data set: Inhibition of Opioid receptor kappa 1 as reduced contraction in electrically stimulated rabbit vas deferens.
For data set [2], the species on record is Mus musculus. Nature of the data set: Compound was tested in mouse for sedation using a rotarod assay.
The next data set addresses Mu-type opioid receptor (Rattus norvegicus, UniProt P33535). The experiment in a line: Compound was evaluated for the inhibition of binding of [3H]DAGO to rat brain mu opioid receptor.
The target in data set [3] is Kappa-type opioid receptor (Rattus norvegicus, UniProt P34975). Nature of the data set: Compound was evaluated for the inhibition of binding of [3H]U-69593 to cloned rat Opioid receptor kappa 1 expressed in CHO cell line.
A short description of data set [4]: Partition coefficient (logP). Particulars: octanol/water.
The species entered for data set [5] is Mus musculus. The experiment in a line: Compound was evaluated for antinociceptive activity using phenylbenzylquinone induced writhing assay in mouse.
Data set [6] can be described thus: Partition coefficient (logD). Particulars: octanol/water.

In the case of `CN(C(=O)C1(C(=O)O)C(c2ccccc2)=C1c1ccccc1)[C@H]1CCCC[C@@H]1N1CCCC1`, the EC50 in data set [1] was > 10000 nM.

`CN(C(=O)C1C(c2ccccc2)=C1c1ccccc1)[C@H]1CCCC[C@@H]1N1CCCC1`: the midpoint of the response in data set [1], the EC50, lay at 32 nM.

For the compound `COc1cccc(C2=C(c3ccccc3)C2C(=O)N(C)[C@H]2CCCC[C@@H]2N2CCCC2)c1` (stereo partly drawn), the EC50 in data set [1] was determined as 300 nM.

For the compound `CN(C(=O)C1C(c2ccccc2)=C1c1ccccc1)[C@H]1CC[C@@]2(CCCO2)C[C@@H]1N1CCCC1`, the ED50 in the data set listed under Mus musculus [2] was 0.6 mg/kg; in the data set listed under Mus musculus [5], 0.19 mg/kg and 0.2 mg/kg. Also, the Ki at Mu-type opioid receptor is > 1000 nM; in data set [3], 0.64 nM. This compound displayed a logP in data set [4] of 4.39. Further, it took 9.6 nM to reach a half-maximal effect in data set [1] (EC50). For the same compound, the logD in data set [6] is 2.37.

In data set [1], `COC(=O)C1(C(=O)N(C)[C@H]2CCCC[C@@H]2N2CCCC2)C(c2ccccc2)=C1c1ccccc1` yielded an EC50 of 3000 nM.

Take `CN(C(=O)C1C(c2ccccc2)=C1c1ccc(Cl)cc1)[C@H]1CCCC[C@@H]1N1CCCC1` (stereo partly drawn): the EC50 in data set [1] was > 10000 nM.

Turning to `CN(C(=O)C(c1ccccc1)c1ccccc1)[C@H]1CCCC[C@@H]1N1CCCC1`, the EC50 in data set [1] is > 10000 nM.

`CN(C(=O)C1C(c2ccccc2)=C1c1cccc(Cl)c1)[C@H]1CCCC[C@@H]1N1CCCC1` (stereo partly drawn) came in with an EC50 in data set [1] of 141 nM.

With `CN(C(=O)C1CC1(c1ccccc1)c1ccccc1)[C@H]1CCCC[C@@H]1N1CCCC1` (stereo partly drawn), the EC50 in data set [1] is > 10000 nM.

`CN(C(=O)CC(c1ccccc1)c1ccccc1)[C@H]1CCCC[C@@H]1N1CCCC1`: in data set [1], the EC50 is > 10000 nM.

In turn, `CN(C(=O)Cc1cccc2occc12)[C@H]1CC[C@@]2(CCCO2)C[C@@H]1N1CCCC1` gave an ED50 in the data set filed under Mus musculus [2] of 0.13 mg/kg. The Ki came out at 87.4 nM at Mu-type opioid receptor and 0.1 nM in data set [3]. Besides, in data set [4], the logP was determined as 3.13. Moreover, in data set [1], the EC50 worked out at 3.3 nM. In data set [6], this compound yielded a logD of 1.55.

On to `CN(C(=O)C1C(c2ccccc2)C1c1ccccc1)[C@H]1CCCC[C@@H]1N1CCCC1` (stereo partly drawn), for which the EC50 in data set [1] was > 10000 nM.
